The source made the active and inactive calls. The calls are words filed in the database; no cut-off is given here.
Assay: Percentage inhibition of Beta-galactosidase from Jack bean at 1 mM concentration; No inhibition
Details: Canavalia ensiformis

Compound | inhibition
C[C@@H](NCC1NCC(O)C1O)c1ccccc1 (stereo partly specified) | inactive
OC1CNC(CNCc2cccs2)C1O (stereo unspecified) | inactive

Assay: Percentage inhibition of Beta-galactosidase from Jack bean at 1 mM concentration
Details: Canavalia ensiformis

Compound | inhibition [%]
OC1CNC(CNCn2ccnc2)C1O (stereo unspecified) | 36
OC1CNC(CNC2CCCC2)C1O (stereo unspecified) | 21
CC(NCC1NCC(O)C1O)C(O)(c1ccccc1)c1ccccc1 (stereo unspecified) | 22
OC1CNC(CNCc2ccco2)C1O (stereo unspecified) | 34
